Experimental findings from US9464084B2, “P2X7 modulators” (Janssen Pharmaceutica NV, priority 2013, dated 2016) are described below.

The chains behind the UniProt entries cited, without tags or fusion partners. Where a name states a change or a piece, a line headed by the entry shows the natural chain unless it says otherwise.
UniProt Q99572: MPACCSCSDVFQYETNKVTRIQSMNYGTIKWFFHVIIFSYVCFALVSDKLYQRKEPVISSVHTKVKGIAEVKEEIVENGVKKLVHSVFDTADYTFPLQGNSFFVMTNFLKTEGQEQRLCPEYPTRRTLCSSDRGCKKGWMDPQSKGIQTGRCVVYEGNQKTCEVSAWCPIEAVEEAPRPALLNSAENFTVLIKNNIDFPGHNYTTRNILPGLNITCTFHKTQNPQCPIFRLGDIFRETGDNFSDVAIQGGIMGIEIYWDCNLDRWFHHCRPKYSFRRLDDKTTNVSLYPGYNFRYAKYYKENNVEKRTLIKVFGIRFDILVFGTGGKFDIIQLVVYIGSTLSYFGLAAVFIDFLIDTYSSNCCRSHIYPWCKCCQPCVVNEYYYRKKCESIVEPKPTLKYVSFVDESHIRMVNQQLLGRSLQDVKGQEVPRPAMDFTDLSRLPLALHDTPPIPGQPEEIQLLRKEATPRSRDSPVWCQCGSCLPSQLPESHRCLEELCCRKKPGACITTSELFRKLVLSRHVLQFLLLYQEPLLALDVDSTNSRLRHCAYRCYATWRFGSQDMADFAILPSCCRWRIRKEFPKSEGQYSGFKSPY

For test [1], the target named is T1, P2X7 (Homo sapiens (Human), UniProt Q99572). The experiment in a line: Radioligand binding, tritiated A-804598, human P2X7-1321N1 cell membranes.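 Note: ki obtained from the binding IC50 after correction for tracer concentration and tracer affinity.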 Conditions: 1 hour at 4° C.
Test [2] deals with T1, P2X7. The test can be described thus: Ca2+ flux (FLIPR) in 1321N1 cells expressing recombinant human P2X7 channel.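 Note: Calcium-4 dye-loaded cells exposed to compound for 30 min before agonist addition, fluorescence change read 180 s after agonist.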 The format is cell-based. Conditions: 250 μM BzATP.

One may read the Ki as the dissociation constant of the complex between target and ligand, obtained from inhibition or displacement. A high value points to lower affinity. For orientation: IC50 means the concentration needed to halve the response being measured.

Take `CCc1cccnc1-n1nnc2c1CCN(C(=O)c1cccc(C(F)(F)F)c1Cl)C2C` (stereo not shown) [Example 254, (2-Chloro-3-(trifluoromethyl)phenyl)(1-(3-ethylpyridin-2-yl)-4-methyl-6,7-dihydro-1H-[1,2,3]triazolo[4,5-c]pyridin-5(4H)-yl)methanone]: at P2X7 [1], the Ki was determined as 44.7 nM. Also, the IC50 at P2X7 [2] stood at 22.3 nM.
The corresponding values for `C[C@H]1c2nnn(-c3ncccn3)c2CCN1C(=O)c1cccc(C(F)(F)F)c1Cl` (single isomer, unassigned) [Example 87, (4S*)-5-{[2-Chloro-3-(trifluoromethyl)phenyl]carbonyl}-4-methyl-1-pyrimidin-2-yl-4,5,6,7-tetrahydro-1H-[1,2,3]triazolo[4,5-c]pyridine] are 1260 nM and 2510 nM.
The like results for `CC1c2nnn(-c3ncccn3)c2CCN1C(=O)c1cccc(C(F)(F)F)c1Cl` (stereo not shown) [Example 80, 5-{[2-Chloro-3-(trifluoromethyl)phenyl]carbonyl}-4-methyl-1-pyrimidin-2-yl-4,5,6,7-tetrahydro-1H-[1,2,3]triazolo[4,5-c]pyridine] were, in that order, 39.8 nM and 20.7 nM.
The like results for `Cc1nc(-n2nnc3c2CCN(C(=O)c2cccc(C(F)(F)F)c2Cl)C3C)ncc1F` (stereo not shown) [Example 230, (2-chloro-3-(trifluoromethyl)phenyl)(1-(5-fluoro-4-methylpyrimidin-2-yl)-4-methyl-6,7-dihydro-1H-[1,2,3]triazolo[4,5-c]pyridin-5(4H)-yl)methanone] were, in that order, 58.9 nM and 13.9 nM.
With `CC1c2ncn(-c3ccc(F)cn3)c2CCN1C(=O)c1cccc(C(F)(F)F)c1F` (stereo not shown) [Example 262, (2-fluoro-3-(trifluoromethyl)phenyl)(1-(5-fluoropyridin-2-yl)-4-methyl-6,7-dihydro-1H-imidazo[4,5-c]pyridin-5(4H)-yl)methanone], the Ki on P2X7 [1] was 39.8 nM. Moreover, the half-maximal inhibitory concentration (IC50) on P2X7 [2] was found to be 128 nM.
The like results for `O=C(c1cccc(C(F)(F)F)c1Cl)N1CCc2c(nnn2-c2ncccn2)C1` [Example 65, 5-{[2-Chloro-3-(trifluoromethyl)phenyl]carbonyl}-1-pyrimidin-2-yl-4,5,6,7-tetrahydro-1H-[1,2,3]triazolo[4,5-c]pyridine] were, in that order, 15.8 nM and 6.3 nM.
The like results for `C[C@H]1Cc2c(nnn2-c2cc(F)ccn2)CN1C(=O)c1cccc(Cl)c1Cl` (single isomer, unassigned) [Example 196, (6S*)-5-[(2,3-Dichlorophenyl)carbonyl]-1-(4-fluoropyridin-2-yl)-6-methyl-4,5,6,7-tetrahydro-1H-[1,2,3]triazolo[4,5-c]pyridine] were, in that order, 501 nM and 391 nM.
The like results for `Cc1c(C(=O)N2CCc3c(nnn3-c3ncccn3)C2C)cccc1C(F)(F)F` (stereo not shown) [Example 282, (4-methyl-1-(pyrimidin-2-yl)-6,7-dihydro-1H-[1,2,3]triazolo[4,5-c]pyridin-5(4H)-yl)(2-methyl-3-(trifluoromethyl)phenyl)methanone] were, in that order, 15.8 nM and 2.9 nM.
On P2X7 [1], `CC1CN(C(=O)c2cccc(C(F)(F)F)c2Cl)C(C)c2nnn(-c3ccccc3)c21` (stereo not shown) [Example 241, (2-Chloro-3-(trifluoromethyl)phenyl)(4,7-dimethyl-1-phenyl-6,7-dihydro-1H-[1,2,3]triazolo[4,5-c]pyridin-5(4H)-yl)methanone] gave an inhibition constant Ki of 2000 nM. Further, the concentration for half-maximal inhibition (IC50) at P2X7 [2] was 2580 nM.
The compound `CC1c2ncn(-c3cnccn3)c2CCN1C(=O)c1cccc(C(F)(F)F)c1F` (stereo not shown) [Example 14, (2-Fluoro-3-(trifluoromethyl)phenyl)(4-methyl-1-(pyrazin-2-yl)-6,7-dihydro-1H-imidazo[4,5-c]pyridin-5(4H)-yl)methanone] registered an inhibitory constant (Ki) at P2X7 [1] of 79.4 nM. Also, the IC50 at P2X7 [2] is 83 nM.
The corresponding values for `CC1c2ncn(-c3ccc(F)cn3)c2C=CN1C(=O)c1cccc(C(F)(F)F)c1Cl` (stereo not shown) [Example 321, (2-chloro-3-(trifluoromethyl)phenyl)(1-(5-fluoropyridin-2-yl)-4-methyl-1H-imidazo[4,5-c]pyridin-5(4H)-yl)methanone] are 100 nM and 37.4 nM.
The corresponding values for `Cc1ccc(-n2nnc3c2CCN(C(=O)c2cccc(C(F)(F)F)c2Cl)[C@@H]3C)nc1` (single isomer, unassigned) [Example 255, (R*)-(2-chloro-3-(trifluoromethyl)phenyl)(4-methyl-1-(5-methylpyridin-2-yl)-6,7-dihydro-1H-[1,2,3]triazolo[4,5-c]pyridin-5(4H)-yl)methanone] are 72.4 nM and 16 nM.
The like results for `C[C@H]1c2ncn(-c3ccccn3)c2CCN1C(=O)c1cccc(Cl)c1Cl` (single isomer, unassigned) [Example 191, (S*)-(2,3-Dichlorophenyl)(4-methyl-1-(pyridin-2-yl)-6,7-dihydro-1H-imidazo[4,5-c]pyridin-5(4H)-yl)methanone] were, in that order, 25.1 nM and 12.2 nM.
Turning to `C[C@@H]1c2n[nH]c(-c3ncc(F)cn3)c2CCN1C(=O)c1cccc(C(F)(F)F)c1Cl` (single isomer, unassigned) [Example 223, (R*)-(2-chloro-3-(trifluoromethyl)phenyl)(3-(5-fluoropyrimidin-2-yl)-7-methyl-4,5-dihydro-2H-pyrazolo[3,4-c]pyridin-6(7H)-yl)methanone], the Ki on P2X7 [1] is 44.7 nM. Moreover, the IC50 at P2X7 [2] came out at 25 nM.
The corresponding values for `Cc1nc(-n2nnc3c2CCN(C(=O)c2cccc(C(F)(F)F)c2Cl)[C@@H]3C)ncc1F` (single isomer, unassigned) [Example 305, (R*)-(2-chloro-3-(trifluoromethyl)phenyl)(1-(5-fluoro-4-methylpyrimidin-2-yl)-4-methyl-6,7-dihydro-1H-[1,2,3]triazolo[4,5-c]pyridin-5(4H)-yl)methanone] are 45.7 nM and 15.5 nM.
On P2X7 [1], `CC1Cc2c(nnn2-c2cc[nH]n2)CN1C(=O)c1cccc(C(F)(F)F)c1Cl` (stereo not shown) [Example 210, (2-chloro-3-(trifluoromethyl)phenyl)(6-methyl-1-(1H-pyrazol-3-yl)-6,7-dihydro-1H-[1,2,3]triazolo[4,5-c]pyridin-5(4H)-yl)methanone] showed a Ki of 5 nM. Further, the half-inhibitory concentration (IC50) at P2X7 [2] was 10.2 nM.
The like results for `CCCOc1cccnc1-n1nnc2c1CCN(C(=O)c1cccc(C(F)(F)F)c1Cl)C2C` (stereo not shown) [Example 293, (2-chloro-3-(trifluoromethyl)phenyl)(4-methyl-1-(3-propoxypyridin-2-yl)-6,7-dihydro-1H-[1,2,3]triazolo[4,5-c]pyridin-5(4H)-yl)methanone] were, in that order, 43.7 nM and 179 nM.
On P2X7 [1], `CC1Cc2c(nnn2-c2ncc(F)cn2)CN1C(=O)c1ccc(F)c(Cl)c1Cl` (stereo not shown) [Example 213, 5-[(2,3-Dichloro-4-fluorophenyl)carbonyl]-1-(5-fluoropyrimidin-2-yl)-6-methyl-4,5,6,7-tetrahydro-1H-[1,2,3]triazolo[4,5-c]pyridine] came in with a Ki of 25.1 nM. Besides, the IC50 at P2X7 [2] stood at 13.3 nM.
`Cc1ccc(-n2nnc3c2CCN(C(=O)c2cccc(C(F)(F)F)c2Cl)C3C)nc1` (stereo not shown) [Example 301, (2-chloro-3-(trifluoromethyl)phenyl)(4-methyl-1-(5-methylpyridin-2-yl)-6,7-dihydro-1H-[1,2,3]triazolo[4,5-c]pyridin-5(4H)-yl)methanone] gave an inhibition constant Ki on P2X7 [1] of 100 nM. For the same compound, the IC50 at P2X7 [2] is 77.6 nM.
For `COc1ccnc(-n2nnc3c2CCN(C(=O)c2cccc(C(F)(F)F)c2Cl)C3)c1` [Example 136, (2-Chloro-3-(trifluoromethyl)phenyl)(1-(4-methoxypyridin-2-yl)-6,7-dihydro-1H-[1,2,3]triazolo[4,5-c]pyridin-5(4H)-yl)methanone], on P2X7 [1], the affinity, expressed as Ki, was 15.8 nM. Moreover, the IC50 at P2X7 [2] came to 9.3 nM.
The like results for `CC1Cc2c(nnn2-c2cc(F)ccn2)CN1C(=O)c1cccc(Cl)c1Cl` (stereo not shown) [Example 173, 5-[(2,3-Dichlorophenyl)carbonyl]-1-(4-fluoropyridin-2-yl)-6-methyl-4,5,6,7-tetrahydro-1H-[1,2,3]triazolo[4,5-c]pyridine] were, in that order, 15.8 nM and 8.9 nM.
The corresponding values for `Cc1c(C(=O)N2CCc3c(nnn3-c3ncccn3)[C@H]2C)cccc1C(F)(F)F` (single isomer, unassigned) [Example 188, (R*)-(4-methyl-1-(pyrimidin-2-yl)-6,7-dihydro-1H-[1,2,3]triazolo[4,5-c]pyridin-5(4H)-yl)(2-methyl-3-(trifluoromethyl)phenyl)methanone] are 7.9 nM and 2.7 nM.
The corresponding values for `C[C@H]1c2nnn(-c3ccn(CCF)n3)c2CCN1C(=O)c1cccc(C(F)(F)F)c1Cl` (single isomer, unassigned) [Example 172, (S*)-(2-Chloro-3-(trifluoromethyl)phenyl)(1-(1-(2-fluoroethyl)-1H-pyrazol-3-yl)-4-methyl-6,7-dihydro-1H-[1,2,3]triazolo[4,5-c]pyridin-5(4H)-yl)methanone] are 31.6 nM and 11.7 nM.
In the case of `CC1Cc2c(nnn2-c2ccccn2)CN1C(=O)c1cccc(Cl)c1Cl` (stereo not shown) [Example 120, 5-[(2,3-Dichlorophenyl)carbonyl]-6-methyl-1-pyridin-2-yl-4,5,6,7-tetrahydro-1H-[1,2,3]triazolo[4,5-c]pyridine], on P2X7 [1], the inhibition constant (Ki) is 6.3 nM. Also, the IC50 on P2X7 [2] came to 5.9 nM.
Regarding `O=C(c1ccc(Cl)cc1Cl)N1CCc2c(nnn2-c2cnccn2)C1` [Example 277, (2,4-dichlorophenyl)(1-(pyrazin-2-yl)-6,7-dihydro-1H-[1,2,3]triazolo[4,5-c]pyridin-5(4H)-yl)methanone], the affinity on P2X7 [1] corresponds to a Ki of 23.4 nM. For the same compound, at P2X7 [2], the IC50 was 94.6 nM.
The corresponding values for `C[C@@H]1Cc2c(nnn2-c2cc(F)ccn2)CN1C(=O)c1cccc(Cl)c1Cl` (single isomer, unassigned) [Example 195, (6R*)-5-[(2,3-Dichlorophenyl)carbonyl]-1-(4-fluoropyridin-2-yl)-6-methyl-4,5,6,7-tetrahydro-1H-[1,2,3]triazolo[4,5-c]pyridine] are 10 nM and 3.4 nM.
